# According to ChEMBL document CHEMBL6096629, “Indolo[3,2-c]isoquinoline Hydroxamic Acid Derivatives as Novel Orally Topoisomerase-Histone Deacetylase Dual Inhibitors for NSCLC Therapy” (J Med Chem, 2025):
# Activity calls are given as the source filed them. The calls are words filed in the database; no cut-off is given here.
# Key:
# [1] = target: T1, DNA topoisomerase 1 (Homo sapiens) (UniProt P11387); experiment: Inhibition of Top1 (unknown origin) using pBR322 plasmid DNA as substrate at 200 uM incubated for 15 mins by electrophoresis
# T1 sequence (whole entry): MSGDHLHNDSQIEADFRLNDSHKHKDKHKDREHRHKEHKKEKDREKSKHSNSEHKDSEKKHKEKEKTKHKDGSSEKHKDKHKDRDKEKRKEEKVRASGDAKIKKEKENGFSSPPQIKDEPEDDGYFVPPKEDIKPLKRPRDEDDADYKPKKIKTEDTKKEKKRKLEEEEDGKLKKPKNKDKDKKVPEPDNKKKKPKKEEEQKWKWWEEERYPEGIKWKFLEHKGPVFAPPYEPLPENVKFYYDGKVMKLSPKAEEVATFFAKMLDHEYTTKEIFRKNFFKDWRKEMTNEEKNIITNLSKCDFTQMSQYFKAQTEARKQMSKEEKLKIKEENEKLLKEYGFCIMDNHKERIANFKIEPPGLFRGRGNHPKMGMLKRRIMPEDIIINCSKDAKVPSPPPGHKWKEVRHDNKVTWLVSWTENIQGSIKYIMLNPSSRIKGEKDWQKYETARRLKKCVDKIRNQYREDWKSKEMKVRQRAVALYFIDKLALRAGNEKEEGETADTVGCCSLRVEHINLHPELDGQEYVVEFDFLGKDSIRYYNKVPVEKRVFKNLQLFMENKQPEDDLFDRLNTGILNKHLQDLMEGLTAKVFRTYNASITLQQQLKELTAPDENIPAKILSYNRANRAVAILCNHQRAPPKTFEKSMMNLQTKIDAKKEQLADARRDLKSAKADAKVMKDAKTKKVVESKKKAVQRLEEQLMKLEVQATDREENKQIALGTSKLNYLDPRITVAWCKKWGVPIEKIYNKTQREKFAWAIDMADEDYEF
# NCI-H1975 = experiment: Induction of DNA damage in human NCI-H1975 cells assessed as increase in gamma-H2AX level incubated for 48 hrs in presence of SAHA by immunoblot analysis; format: functional, cell-based
# [2] = target: T1, DNA topoisomerase 1 (Homo sapiens); experiment: Inhibition of Top1 in human NCI-H1975 cells at 4 uM incubated for 48 hrs by immunoblot analysis; format: cell-based
# [3] = target: T1, DNA topoisomerase 1 (Homo sapiens); experiment: Inhibition of Top1 (unknown origin) using pBR322 plasmid DNA as substrate at 20 uM incubated for 15 mins by electrophoresis
# [4] = target: T1, DNA topoisomerase 1 (Homo sapiens); experiment: Inhibition of Top1 in human NCI-H1975 cells at 1 to 2 uM incubated for 48 hrs by immunoblot analysis; format: cell-based; details: dose 1-2 µM
inhibition [1],Compound,also measured
Active,O=C(CCCCCCn1c2cc3c(cc2c2[nH]c(=O)c4ccccc4c21)OCO3)NO,
Active,O=C(CCCCCn1c2cc3c(cc2c2[nH]c(=O)c4ccccc4c21)OCO3)NO,
Active,O=C(CCCCCCCn1c2cc3c(cc2c2[nH]c(=O)c4ccccc4c21)OCO3)NO,inhibition [4]: Active; inhibition [3]: Active
Active,O=C(CCCCn1c2cc3c(cc2c2[nH]c(=O)c4ccccc4c21)OCO3)NO,inhibition [3]: Active

# Continued, molecule first:
Compound,inhibition [1],also measured
O=C(CCCCCCCCn1c2cc3c(cc2c2ncc4ccccc4c21)OCO3)NO,inactive,
CCc1c2c(nc3ccc(OC(=O)N4CCC(N5CCCCC5)CC4)cc13)-c1cc3c(c(=O)n1C2)COC(=O)[C@]3(O)CC [IRINOTECAN],,Activity (NCI-H1975): Active; inhibition [2]: Active
CCCNNC(=O)CCCCn1c2cc3c(cc2c2[nH]c(=O)c4ccccc4c21)OCO3,inactive,
O=C(CCCCCCn1c2cc3c(cc2c2ncc4ccccc4c21)OCO3)NO,Active,inhibition [3]: Active
O=C(CCCCCCCn1c2cc3c(cc2c2ncc4ccccc4c21)OCO3)NO,Active,
O=C(CCCCCCCCn1c2cc3c(cc2c2[nH]c(=O)c4ccccc4c21)OCO3)NO,Active,
O=C(CCCCCCn1c2cc3c(cc2c2nc(Cl)c4ccccc4c21)OCO3)NO,Active,
